ChEMBL document CHEMBL1135277, “Beta-carbolines as specific inhibitors of cyclin-dependent kinases” (Bioorg Med Chem Lett, 2002)

Protein sequences, listed by entry. Tags and fused reporters are not part of them.
UniProt Q00535, whole entry: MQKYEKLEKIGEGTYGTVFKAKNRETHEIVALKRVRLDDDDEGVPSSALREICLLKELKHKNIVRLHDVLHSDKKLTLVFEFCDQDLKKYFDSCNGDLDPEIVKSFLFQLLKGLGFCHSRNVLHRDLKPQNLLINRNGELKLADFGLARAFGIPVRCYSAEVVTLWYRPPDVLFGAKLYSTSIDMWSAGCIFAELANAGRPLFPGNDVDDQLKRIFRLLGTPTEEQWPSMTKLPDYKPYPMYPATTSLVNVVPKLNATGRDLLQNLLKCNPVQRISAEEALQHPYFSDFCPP

Target: Cyclin-dependent kinase 5/CDK5 activator 1 (Homo sapiens, UniProt Q00535)
Assay: Inhibition of Cyclin-dependent kinase 5-p35nck5a
Format: protein-complex assay

For COc1ccc2c(c1)[nH]c1c(C)nccc12 [HARMINE], the IC50 was 21 µM.
